Reference: patent publication US7994190B2, “Modulators of glucocorticoid receptor, AP-1, and/or NF-κB activity and use thereof” (Bristol-Myers Squibb Company, priority 2006, dated 2011)

By UniProt entry, the sequences of proteins in these tests, tags left out.
UniProt P04150, whole entry: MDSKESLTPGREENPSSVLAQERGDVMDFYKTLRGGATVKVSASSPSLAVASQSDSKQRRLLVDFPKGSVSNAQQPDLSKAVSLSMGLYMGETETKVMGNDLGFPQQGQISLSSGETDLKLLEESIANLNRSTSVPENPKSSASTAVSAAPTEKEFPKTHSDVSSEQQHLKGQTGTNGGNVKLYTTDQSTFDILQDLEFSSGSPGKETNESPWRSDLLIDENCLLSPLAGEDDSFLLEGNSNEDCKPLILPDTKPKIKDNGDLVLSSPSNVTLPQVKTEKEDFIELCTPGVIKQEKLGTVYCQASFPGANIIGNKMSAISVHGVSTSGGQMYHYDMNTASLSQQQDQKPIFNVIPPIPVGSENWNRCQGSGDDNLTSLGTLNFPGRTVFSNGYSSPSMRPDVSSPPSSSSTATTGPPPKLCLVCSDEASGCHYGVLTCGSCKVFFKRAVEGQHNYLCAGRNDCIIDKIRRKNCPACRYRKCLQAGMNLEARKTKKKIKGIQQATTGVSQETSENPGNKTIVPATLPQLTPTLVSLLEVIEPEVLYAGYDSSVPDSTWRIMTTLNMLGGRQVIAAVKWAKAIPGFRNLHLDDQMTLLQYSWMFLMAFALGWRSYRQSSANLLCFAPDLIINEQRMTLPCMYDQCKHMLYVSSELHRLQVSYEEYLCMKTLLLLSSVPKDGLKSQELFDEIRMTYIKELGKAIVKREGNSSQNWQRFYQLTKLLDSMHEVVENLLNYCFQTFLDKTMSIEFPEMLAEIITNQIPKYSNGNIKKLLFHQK

Target: human glucocorticoid receptor (Homo sapiens, UniProt P04150)
Test: Glucocorticoid Receptor Binding Assay (fluorescence polarization competitor kit)
Details: read-out: GR (Ki, nM) (GR Binding Assay); purified human recombinant full-length GR 2 nM, 1 nM Fluormone GS Red, 2 h room temperature
Description: Glucocorticoid Receptor Binding Assay
In order to assess the affinity of test compounds for the human glucocorticoid receptor, a commercially available kit was used (Glucocorticoid Receptor Competitor Assay Kit, Invitrogen Part #2893). Briefly, purified human recombinant full-length glucocorticoid receptor (2 nM) was mixed with fluorescently labeled glucocorticoid (1 nM Fluormone GS Red) in the presence or absence of test compound. After two hour incubation at room temperature in the dark, the fluorescence polarization (FP) of the samples was measured. The FP of a mixture of receptor, fluorescent probe (i.e. Fluormone GS Red) and 5 μM dexamethasone represented background fluorescence or 100% inhibition, whereas, the FP of the mixture without dexamethasone (but in the presence of vehicle) was taken to be 100% binding. The percentage inhibition of test compounds were then compared to the sample with 5 μM dexamethasone and expressed as % relative binding activity, with dexamethasone being 100% and no inhibition being 0%. Test compounds were analyzed in the concentration range from 8.5E-05 μM to 5 μM.

SMILES: CC(C)(C(=O)Nc1nncs1)C(c1ccccc1)c1ccc2c(-c3ccc(C#N)cc3)ncn2c1 (stereo not shown)
- Ki: 20 nM
